Screens as filed in PubChem BioAssay.
ARNT-TACC3 inh: disruptors of ARNT/TACC3 protein interaction, primary screen, biochemical, AlphaScreen, single concentration. Transforming acidic coiled-coil-containing protein 3 (Homo sapiens), Q9Y6A5. 390,000 tested, 0.66% active. inhibition, % at 9.99 µM. AlphaScreen His-ARNT PAS-B/GST-TACC3 binding, luminescence; TACC3 fragment carries E629A point mutation. AID 623870, 2012;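 active means mean inhibition of replicates at least 50% and at least half of replicates each reaching 50%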;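 further: 0% = complete ARNT plus TACC3 wells and 100% = ARNT alone without TACC3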
PDI inh: inhibitors of human PDI, primary screen, biochemical, turbidity, single point, plate reader; Protein disulfide-isomerase (Homo sapiens), P07237; PDI insulin aggregation turbidity, A650, 90 min; inhibition, % at 10 µM; 350,000 tested, 0.052% active; AID 588391, 2011;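 active means mean inhibition across replicates of 30% or more, whatever share of single replicates reach that level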
FGF22 binding: binders of human FGF22 protein, primary screen, FGF22 synaptogenesis inhibitor project, biophysical, thermal shift, single point. 340,000 tested, 1.5% active. AID 651658, 2012. recombinant FGF22 thermal shift, SYPRO orange fluorescence; percent of sucrose octasulfate shift, DMSO zero. Fibroblast growth factor 22 (Homo sapiens), Q9HCT0. activity (Tm shift, normalised), % at 9.99 µM;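 active means mean Tm shift, scaled 0 neutral to 100 positive control, at about 1.3% or above, every replicate too, limit read from the data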
ERp5 block: inhibitors of ERp5-driven insulin aggregation, primary screen, biochemical, turbidity, absorbance 650 nm, single point. Protein disulfide-isomerase A6 (Homo sapiens), Q15084. 90 min. inhibition, % at 9.99 µM. 350,000 tested, 0.05% active;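 active means mean replicate inhibition above about 25%, with every replicate also reaching it, limit read from the data, passing the limit was not always enough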
Yeast UUG start: yeast start codon fidelity modulation | S. cerevisiae UUG-firefly luciferase reporter, luminescence/redox ratio | activity score, % at 18.7 µM | 0.13% of 350,000 active | AID 602363;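 active means replicate mean at a twofold rise or more, about +100% in these data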;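 further: firefly luciferase made from a UUG start codon reports start codon fidelity; reporter light over untreated wells divided by growth signal over untreated wells; some hits fall short of that in this replicate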
PglD DTNB: C. jejuni PglD acetyltransferase inhibitors, primary screen, biochemical, DTNB colorimetric, single point; purified PglD enzyme, DTNB colorimetric CoA detection; inhibition, % at 12.5 µM; 360,000 tested, 0.098% active; AID 602405, 2012; in the data active means inhibition above about 16%, passing the limit was not always enough
Active calls of the source: *; nt = not tested or not shown. Hits are enriched below; roughly 1.9% of the tested compounds scored in any of these assays.

SMILES | ARNT-TACC3 inh | PDI inh | FGF22 binding | ERp5 block | Yeast UUG start | PglD DTNB
Cc1ccc(NC(=O)c2cccs2)cc1[N+](=O)[O-] | -1.5 | -3.4 | 43.8* | -4.3 | nt | nt
Cc1noc(C)c1NC(=O)N(C)C[C@@H]1Oc2ncc(C#CC(C)(C)O)cc2C(=O)N([C@H](C)CO)C[C@@H]1C | 6.0 | nt | 0.4 | 4.7 | -7.5 | 0.5
COc1ccc(CN(C)C[C@@H]2OCCCC[C@@H](C)Oc3ccc(NC(=O)CCCN(C)C)cc3C(=O)N([C@@H](C)CO)C[C@H]2C)cc1 | -1.2 | nt | -0.4 | -3.9 | -7.6 | -2.5
CO[C@@H]1CN(C)C(=O)c2cc(NC(=O)Nc3cc(F)ccc3F)ccc2OC[C@@H](C)N(C(=O)c2cnccn2)C[C@@H]1C | -3.0 | nt | -0.2 | -3.5 | 2.3 | 2.7
COC(=O)c1ccc2nc(NC(=O)C3CCCCC3)sc2c1 | -2.2 | -4.4 | 0.4 | 1.4 | nt | nt
COC(=O)c1ccc2nc(NC(=O)C(C)(C)C)sc2c1 | 1.3 | 6.9 | 43.1* | -4.7 | nt | nt
COC(=O)/C(=C/Nc1ccc(O)cc1)[N+](=O)[O-] | 23.7* | 3.9 | nt | nt | -10.4 | 0.7
C[C@H]1CN([C@@H](C)CO)C(=O)Cc2cc(NC(=O)c3ccncc3)ccc2O[C@H]1CN(C)S(=O)(=O)c1cn(C)cn1 | -11.7 | nt | 0.0 | 74.4* | -13.5 | 7.1
C[C@@H]1CN([C@@H](C)CO)C(=O)Cc2cc(NC(=O)c3ccncc3)ccc2O[C@@H]1CN(C)S(=O)(=O)c1cn(C)cn1 | nt | nt | 1.0 | 1.7 | nt | nt
C[C@H](CO)N1C[C@H](C)[C@@H](CN(C)S(=O)(=O)c2cn(C)cn2)Oc2ccc(NC(=O)c3ccncc3)cc2CC1=O | -11.8 | nt | 0.0 | 64.6* | 0.5 | -1.4
CCCN1C[C@@H](C)[C@H](OC)CN(C)C(=O)c2cc(NC(=O)c3ccccc3F)ccc2OC[C@@H]1C | -4.0 | nt | 0.2 | 0.5 | -6.3 | -2.1
COc1ccc(-c2cc(C)nc3c(-c4ccccc4)cnn23)cc1 | 1.0 | -7.3 | 42.9* | -2.0 | nt | nt

Some of the entries so far, field by field.
> Cc1noc(C)c1NC(=O)N(C)C[C@@H]1Oc2ncc(C#CC(C)(C)O)cc2C(=O)N([C@H](C)CO)C[C@@H]1C
  ARNT-TACC3 inh = 6.0	PDI inh = nt	FGF22 binding = 0.4	ERp5 block = 4.7	Yeast UUG start = -7.5	PglD DTNB = 0.5
> COc1ccc(CN(C)C[C@@H]2OCCCC[C@@H](C)Oc3ccc(NC(=O)CCCN(C)C)cc3C(=O)N([C@@H](C)CO)C[C@H]2C)cc1
  ARNT-TACC3 inh = -1.2	PDI inh = nt	FGF22 binding = -0.4	ERp5 block = -3.9	Yeast UUG start = -7.6	PglD DTNB = -2.5

Further entries follow.
SMILES | ARNT-TACC3 inh | PDI inh | FGF22 binding | ERp5 block | Yeast UUG start | PglD DTNB
CCOC(=O)C1=C(C)NC(C)=C(C(=O)OCC)C1C(=O)OCC(=O)N1CCC(C)CC1 | -4.3 | 0.7 | 43.3* | 7.3 | -20.0 | 3.1
CCOC(=O)C1=C(C)NC(C)=C(C(=O)OCC)C1C(=O)OCC(=O)N1CCCCC1CC (stereo not given) | -9.6 | -1.5 | -0.1 | -11.5 | 8.5 | 5.2
C[C@H]1CN([C@@H](C)CO)C(=O)c2cc(NC(=O)C3CC3)ccc2O[C@@H]1CN(C)S(=O)(=O)c1ccc(Cl)cc1 | -0.3 | nt | 0.0 | -2.4 | 8.0 | 0.3
O=C(CSc1ncnc2scc(-c3ccccc3)c12)NC1CCS(=O)(=O)C1 (stereo not given) | -9.4 | -1.9 | 0.0 | 2.6 | nt | nt
O=C(CSc1ncnc2sc(-c3ccccc3)cc12)NC1CCS(=O)(=O)C1 (stereo not given) | -1.1 | -13.8 | 43.2* | -1.2 | nt | nt
O=C(C[C@H]1CC[C@@H]2[C@H](COC[C@H](O)CN2Cc2nccs2)O1)NCc1ccc(Cl)cc1 | 4.9 | nt | 0.1 | -5.6 | -6.5 | 1.3
CN(C)CCCNC(=O)C[C@H]1CC[C@@H]2[C@H](COC[C@@H](O)CN2C(=O)c2ccncc2)O1 | -4.4 | nt | 0.0 | -11.6 | -13.8 | 1.8
Cn1c(CN2CCCC2)c(C#N)c2ccccc21 | nt | 5.5 | 43.2* | 4.0 | nt | nt
CN1CCN(Cc2c(C#N)c3ccccc3n2C)CC1 | 1.2 | -4.0 | nt | nt | -10.7 | 2.4
CCCCc1c(-c2cccc(Br)c2)ncn1CCc1ccccc1OC | nt | nt | 34.6* | 2.9 | nt | nt
COC(=O)CSc1nc(C)c(C)c(C)c1C(N)=O | -1.4 | 2.5 | 43.2* | 3.0 | nt | nt
COC(=O)CSc1nc(N)nc(C)c1Cl | nt | 0.0 | 42.3 | 2.7 | nt | nt
CC1=NN(c2ccc(C)c(C)c2)C(=O)/C1=C\C=C\c1ccc([N+](=O)[O-])o1 | -3.7 | -4.9 | 43.3* | 2.0 | nt | nt
CCOC(=O)c1c[nH]c2nc(C)ccc2c1=O | -2.4 | 4.7 | 43.1* | 4.2 | nt | nt
CC(C)NC(=O)N(C)C[C@H]1Oc2ncc(-c3cncnc3)cc2C(=O)N([C@H](C)CO)C[C@H]1C | 2.2 | nt | 0.0 | -2.3 | -5.2 | -3.7
O=C(C[C@H]1CC[C@H]2[C@@H](COC[C@H](O)CN2Cc2ccc(Cl)cc2)O1)NCc1ccccc1Cl | 11.2 | nt | -1.2 | -0.6 | nt | 0.4
O=C(NNC1=C(C(=O)C(F)(F)F)CCC1)c1ccccc1O | 63.2* | 5.2 | nt | nt | nt | nt
O=C(C[C@@H]1C=C[C@@H](NS(=O)(=O)c2ccccc2)[C@@H](CO)O1)NCc1ccncn1 | nt | nt | 0.1 | -2.0 | -0.6 | 3.7
Cc1cccc(C)c1OCC(=O)N/N=C/c1ccncc1 | 27.6 | 5.1 | 0.2 | 3.5 | nt | nt
O=C(COc1cccc2ccccc12)N/N=C/c1ccncc1 | -1.2 | 4.6 | 43.2* | -2.3 | 1.5 | -4.3
CC(Oc1ccc2ccccc2c1)C(=O)N/N=C/c1cccnc1 (stereo not given) | 1.1 | 11.6 | -0.2 | 5.6 | -4.3 | 4.2
COc1cccc(C(NC(C)=O)c2ccc3cccnc3c2O)c1 (stereo not given) | 99.8* | -6.2 | 0.1 | -2.0 | -16.8 | 2.2
Cc1cccc(NC(=O)CSc2cccc3cccnc23)c1C | 83.7* | 17.5 | 0.1 | 2.5 | -17.7 | -6.2
CC(Nc1ccc2ccccc2c1)C(=O)N/N=C/c1ccncc1 (stereo not given) | active | -1.8 | 0.1 | -3.0 | -6.6 | -0.8

Reprinted from the part before: 4 entries, then new ones.
SMILES | ARNT-TACC3 inh | PDI inh | FGF22 binding | ERp5 block | Yeast UUG start | PglD DTNB
CC(Oc1ccc2ccccc2c1)C(=O)N/N=C/c1cccnc1 (stereo not given) | 1.1 | 11.6 | -0.2 | 5.6 | -4.3 | 4.2
COc1cccc(C(NC(C)=O)c2ccc3cccnc3c2O)c1 (stereo not given) | 99.8* | -6.2 | 0.1 | -2.0 | -16.8 | 2.2
Cc1cccc(NC(=O)CSc2cccc3cccnc23)c1C | 83.7* | 17.5 | 0.1 | 2.5 | -17.7 | -6.2
CC(Nc1ccc2ccccc2c1)C(=O)N/N=C/c1ccncc1 (stereo not given) | active | -1.8 | 0.1 | -3.0 | -6.6 | -0.8
COC(=O)C[C@H]1CC[C@@H]2[C@H](COc3ccc(NC(=O)c4ccccc4F)cc3C(=O)N2C)O1 | -3.0 | nt | -0.2 | -5.8 | nt | 1.1
CN1c2ccc(Br)cc2[C@H]2[C@H](CCN2C(=O)C2CCOCC2)[C@@H]1CO | -8.7 | nt | 0.0 | 10.9 | 15.1 | -3.6
CCOc1ccc(NCC(=O)N/N=C/C=C/c2ccccc2)cc1 | 1.5 | 1.5 | -0.3 | -1.4 | nt | nt
Cc1ccccc1NC(=O)CSc1n[nH]c(-c2ccccn2)n1 | 64.4* | 4.7 | -0.4 | 5.5 | -28.6 | -1.0
COc1ccc(OCC(=O)N/N=C/C=C/c2ccccc2)cc1 | -6.7 | -6.4 | 42.9* | -5.0 | -16.4 | nt
O=C(CSc1cccc2cccnc12)N/N=C/c1ccc(O)cc1 | 26.9 | -1.8 | 0.0 | 3.6 | -16.8 | -2.8
COc1cccc(/C=N/NC(=O)CSc2cccc3cccnc23)c1 | 95.9* | -0.7 | nt | 0.9 | -10.6 | 2.2
COc1ccc(OCC(=O)N/N=C/c2cccc3cccnc23)cc1 | 76.9* | -1.6 | -0.2 | 5.7 | -7.7 | 1.0
